Measurements published in ChEMBL document CHEMBL6087427, “Discovery of novel cyclopentane carboxylic acids as potent and selective inhibitors of NaV1.7” (Bioorg Med Chem Lett, 2025).

By UniProt entry, the sequences of proteins in these tests, tags left out.
UniProt Q15858, whole entry, looked up: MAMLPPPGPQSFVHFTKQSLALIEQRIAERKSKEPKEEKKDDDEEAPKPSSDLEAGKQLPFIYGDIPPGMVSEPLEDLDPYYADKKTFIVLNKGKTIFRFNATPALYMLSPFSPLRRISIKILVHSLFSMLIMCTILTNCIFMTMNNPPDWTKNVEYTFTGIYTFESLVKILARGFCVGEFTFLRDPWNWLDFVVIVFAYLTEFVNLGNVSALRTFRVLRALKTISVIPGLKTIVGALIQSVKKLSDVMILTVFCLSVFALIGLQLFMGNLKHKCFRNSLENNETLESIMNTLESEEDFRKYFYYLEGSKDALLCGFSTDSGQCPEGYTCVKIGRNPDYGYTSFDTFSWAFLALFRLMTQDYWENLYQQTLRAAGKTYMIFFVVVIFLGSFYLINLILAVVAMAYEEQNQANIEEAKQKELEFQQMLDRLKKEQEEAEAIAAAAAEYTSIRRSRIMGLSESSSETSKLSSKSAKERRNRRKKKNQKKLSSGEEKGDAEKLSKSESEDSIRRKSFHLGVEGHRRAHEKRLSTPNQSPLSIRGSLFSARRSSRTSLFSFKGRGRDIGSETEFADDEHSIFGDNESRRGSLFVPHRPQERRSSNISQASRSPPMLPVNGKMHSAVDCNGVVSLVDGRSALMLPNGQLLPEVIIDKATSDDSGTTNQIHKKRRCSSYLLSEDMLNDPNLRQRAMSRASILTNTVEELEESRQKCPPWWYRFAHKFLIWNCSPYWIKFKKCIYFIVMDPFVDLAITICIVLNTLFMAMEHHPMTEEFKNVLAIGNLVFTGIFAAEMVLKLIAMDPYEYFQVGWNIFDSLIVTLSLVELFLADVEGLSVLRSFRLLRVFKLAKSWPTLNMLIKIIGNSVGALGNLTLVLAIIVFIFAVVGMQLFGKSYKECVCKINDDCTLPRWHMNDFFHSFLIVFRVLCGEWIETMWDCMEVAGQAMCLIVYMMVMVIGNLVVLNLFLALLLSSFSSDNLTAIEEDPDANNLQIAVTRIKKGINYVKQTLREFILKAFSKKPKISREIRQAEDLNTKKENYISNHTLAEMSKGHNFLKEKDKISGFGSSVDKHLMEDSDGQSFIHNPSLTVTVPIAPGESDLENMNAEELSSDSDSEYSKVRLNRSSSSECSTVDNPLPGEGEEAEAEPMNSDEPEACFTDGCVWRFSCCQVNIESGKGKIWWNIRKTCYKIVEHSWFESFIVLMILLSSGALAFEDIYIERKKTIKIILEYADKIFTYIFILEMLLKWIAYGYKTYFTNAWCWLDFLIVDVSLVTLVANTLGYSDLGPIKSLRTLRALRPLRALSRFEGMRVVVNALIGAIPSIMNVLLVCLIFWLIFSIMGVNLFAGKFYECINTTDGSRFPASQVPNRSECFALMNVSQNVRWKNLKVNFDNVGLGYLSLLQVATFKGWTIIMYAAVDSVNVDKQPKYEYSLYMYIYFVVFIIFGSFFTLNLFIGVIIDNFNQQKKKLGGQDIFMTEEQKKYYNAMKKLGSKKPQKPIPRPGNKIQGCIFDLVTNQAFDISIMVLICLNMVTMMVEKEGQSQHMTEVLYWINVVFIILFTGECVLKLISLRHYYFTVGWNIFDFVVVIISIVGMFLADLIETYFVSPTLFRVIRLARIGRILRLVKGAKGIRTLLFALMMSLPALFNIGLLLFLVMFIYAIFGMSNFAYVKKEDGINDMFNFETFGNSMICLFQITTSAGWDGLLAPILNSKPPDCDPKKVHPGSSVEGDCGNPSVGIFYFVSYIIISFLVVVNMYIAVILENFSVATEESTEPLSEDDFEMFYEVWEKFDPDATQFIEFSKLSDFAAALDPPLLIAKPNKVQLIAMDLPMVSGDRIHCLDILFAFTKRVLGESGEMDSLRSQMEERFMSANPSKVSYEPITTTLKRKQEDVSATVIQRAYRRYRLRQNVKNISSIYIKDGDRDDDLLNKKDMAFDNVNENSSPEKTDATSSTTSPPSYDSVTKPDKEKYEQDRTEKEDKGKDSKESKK

Target: Sodium channel protein type 9 subunit alpha (Homo sapiens, UniProt Q15858)
Test: Inhibition of human Nav1.7 assessed as fold shift in IC50 in presence of BSA by sodium flux assay

C[C@@H]1[C@@H](C(=O)O)[C@H](C(=O)c2cc(C3CC3)c(OCC3CCN(Cc4c(Cl)cccc4Cl)CC3)cc2F)C[C@@H]1F
fold change (FC): 0.75
